Results on one compound are retold here after ChEMBL document CHEMBL3526049 (Drug Metab Dispos, 2012).

The nature of the data set: Half life in MRP2 knockout Sprague-Dawley rat at 1 mg/kg, iv by LC-MS/MS analysis. It counts as ADME, organism-based. On the set-up: dose 1 mg/kg, route intravenous. The conditions noted are these: in vivo. A digest of the protocol:
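Male Sprague-Dawley rats (knockout or wild type matched for age and weight), femoral artery and vein cannulated, at least 2 days recovery. Crossover design: IV bolus 1 mg/kg on day 0 (saline with 0.2 M equivalents HCl), oral gavage 10 mg/kg on day 3 (water with 0.2 M equivalents HCl). Arterial plasma sampled to 24 h (Mdr1a oral arm to 4 h). Analysed by LC-MS/MS and noncompartmental analysis.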

Structures are written as SMILES.

The term half-life denotes the time needed for the level to fall by half in the phase considered. High values mean slow loss, low ones fast loss. On to `CC(=O)O[C@H]1C(=O)[C@@]2(C)[C@H]([C@H](OC(=O)c3ccccc3)[C@]3(O)C[C@H](OC(=O)[C@H](O)[C@@H](NC(=O)c4ccccc4)c4ccccc4)C(C)=C1C3(C)C)[C@]1(OC(C)=O)CO[C@@H]1C[C@@H]2O` [PACLITAXEL], for which the half-life was 8.1 h.
